Experimental findings from patent US20240139185A1, “COMPOUNDS THAT PARTICIPATE IN COOPERATIVE BINDING AND USES THEREOF” (Revolution Medicines, Inc., priority 2018, published 2024) are described below.

This assay deals with pERK in H358 cells. In words: pERK inhibition in H358 cells. To be noted: read-out: Cellular pERK inhibition, 4 hours treatment. The method, boiled down:
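Human lung cancer H358 cells in RPMI/10% FBS were exposed to compound or DMSO for 4 h. Fixed and permeabilized cells were stained overnight at 4 C with anti-phospho-ERK1/2 (Thr202/Tyr204). Near-infrared imaging read the pERK signal at 800 nm, with DRAQ5 at 700 nm.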

Take `CC(C)[C@@H](C(=O)N[C@H]1Cc2cc(O)cc(c2)-c2ccc3c(c2)n(c(=O)n3C2CC2)C[C@H](C)COC(=O)[C@@H]2CCCN(N2)C1=O)N(C)C(=O)C1CN(C(=O)CCl)C1`: the IC50 lay within 1000 to 10000 nM.
Regarding `CC(C)[C@@H](C(=O)N[C@H]1Cc2cc(O)cc(c2)-c2ccc3c(c2)N(C[C@H](C)COC(=O)[C@@H]2CCCN(N2)C1=O)CC3(C)/C=C/C#N)N(C)C(=O)C1CN(C(=O)CCl)C1` (single isomer, unassigned) [221], the IC50 is < 1000 nM.
